Measured values published in patent US20230313146A1, “INTESTINAL EPITHELIAL CELL CULTURES” (ARDELYX, INC., priority 2017, published 2023).

Tested on: mouse duodenal, jejunal, and ileal cultures
Assay: Differentiation of mouse small intestinal monolayer cultures (global gene expression PCC versus tissue, TEER)
Assay type: cell-based
Procedure: Approximately 1 μg of the entire isolated RNA was used to prepare each RNA sequencing library. RNA libraries were prepared using the TruSeq Stranded mRNA library preparation kit (Illumina). Most sequencing data were obtained using a NextSeq500 sequencer (Illumina) (2×75 bp, ˜ 30-40 million reads per sample) and some sequencing was performed using a HiSeq sequencer (Illumina) (2×125 bp, ˜ 25-30 million reads per sample). Transcript counts were obtained using the RNA Express application (RNA-Seq reads aligned with the STAR aligner) on the Illumina BaseSpace website.
Pearson correlation coefficients were determined in Microsoft Excel using the Pearson function comparing the transcript count correlation for all genes between two data sets.
On day 2, fresh W2.5ENRY was added to the cultures, and was replaced on day 4. Confluence of the culture was assessed by measuring the TEER. […]
Therefore, global gene expression by RNA sequencing was obtained for 36 culture conditions, taken 4, 6, and 8 days after seeding the cultures, and compared with the gene expression profiles of mouse jejunal villi and crypts. To simplify analysis and to account for changes in global gene expression rather than relying on a handful of marker genes, the Pearson correlation coefficient (PCC) was calculated for the relationship between the gene expression profiles of cultured cells and of mouse jejunal villus cells. […]

B1: BMP 2: human BMP-2 (Peprotech), bone morphogenetic protein used as differentiation promoting factor (protein, UniProt P12643 283-396, looked up)
Bone morphogenetic protein 2: QAKHKQRKRLKSSCKRHPLYVDFSDVGWNDWIVAPPGYHAFYCHGECPFPLADHLNSTNHAIVQTLVNSVNSKIPKACCVPTELSAISMLYLDENEKVVLKNYQDMVVEGCGCR
B1 was tested, and the “correlation of gene expression of cultures with tissues in the jejunum and ileum (PCC)” value (100 ng/mL, dose titration of individual BMPs) was “strong correlations of gene expression” and the “effectiveness at differentiating mouse duodenal, jejunal, and ileal cultures” value (compared with the BMP mixture (BMP 2, 4, and 7)) was “as effective as the BMP mixture”.
